Assay results reported in paper PMC2358886, “Evolution of pharmacologic specificity in the pregnane X receptor” (BMC Evolutionary Biology, 2008).

Legend:
human PXR = molecular target: T1, human PXR (Homo sapiens, UniProt O75469)
T1 sequence (O75469 1-434): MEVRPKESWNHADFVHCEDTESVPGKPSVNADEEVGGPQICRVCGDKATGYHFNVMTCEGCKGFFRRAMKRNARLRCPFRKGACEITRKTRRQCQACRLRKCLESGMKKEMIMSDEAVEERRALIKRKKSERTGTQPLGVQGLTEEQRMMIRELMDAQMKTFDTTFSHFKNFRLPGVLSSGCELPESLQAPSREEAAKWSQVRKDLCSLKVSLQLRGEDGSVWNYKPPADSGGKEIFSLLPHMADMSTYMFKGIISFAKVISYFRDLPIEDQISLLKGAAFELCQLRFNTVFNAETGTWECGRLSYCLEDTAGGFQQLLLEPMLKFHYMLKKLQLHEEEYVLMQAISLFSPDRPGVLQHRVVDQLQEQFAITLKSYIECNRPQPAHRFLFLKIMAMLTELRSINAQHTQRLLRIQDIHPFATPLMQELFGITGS

zebrafish PXR = molecular target: T2, zebrafish PXR (Danio rerio, UniProt A5WYG8)
T2 sequence (A5WYG8 144-430): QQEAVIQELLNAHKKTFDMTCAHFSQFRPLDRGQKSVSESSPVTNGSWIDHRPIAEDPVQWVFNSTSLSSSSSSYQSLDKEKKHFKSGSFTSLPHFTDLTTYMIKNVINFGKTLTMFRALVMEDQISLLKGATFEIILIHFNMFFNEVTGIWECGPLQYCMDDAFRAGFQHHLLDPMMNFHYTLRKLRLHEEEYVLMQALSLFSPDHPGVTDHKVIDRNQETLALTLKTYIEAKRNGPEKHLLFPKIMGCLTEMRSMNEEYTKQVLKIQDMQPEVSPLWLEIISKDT

For Hyperforin [MI19], the “hPXR Activity” value (human PXR) was 7.22, the “hPXR Efficacy” value (human PXR) was 1.29 and the “zfPXR Activity” value (zebrafish PXR) was “None”. It also gave a Toxicity (HepG2 cells) of 50 µM.
